Assay results from ChEMBL document CHEMBL4406811, “Optimization and Mechanistic Characterization of Pyridopyrimidine Inhibitors of Bacterial Biotin Carboxylase” (J Med Chem, 2019).
In brackets after ≈: the same amount, converted by molar mass.

Columns and labels:
Assay type in all cases: functional
[1] = system: Klebsiella pneumoniae; assay: Antibacterial activity against Klebsiella pneumoniae ATCC 43816 measured after 18 to 20 hrs by broth microdilution method
[2] = system: Acinetobacter baumannii; assay: Antibacterial activity against wild-type Acinetobacter baumannii ATCC 19606 measured after 18 to 20 hrs by broth microdilution method; settings: ATCC 19606 = CIP 70.34 = JCM 6841
[3] = system: Escherichia coli; assay: Antibacterial activity against Escherichia coli DM4100 measured after 18 to 20 hrs by broth microdilution method
[4] = system: Pseudomonas aeruginosa; assay: Antibacterial activity against Pseudomonas aeruginosa PAO1 measured after 18 to 20 hrs by broth microdilution method
[5] = system: Escherichia coli; assay: Antibacterial activity against Escherichia coli DM4100 measured after 18 to 20 hrs in presence of permeabilizing agent PMBN by broth microdilution method

| Compound | MIC [1] | MIC [2] | MIC [3] | MIC [4] | MIC [5] |
| --- | --- | --- | --- | --- | --- |
| COc1ccc(-c2cccc(Cl)c2-c2cc3cnc(N)nc3nc2N)cn1 | > 16 µg/mL |  |  |  |  |
| NCC1(O)CCN(c2nc3nc(N)ncc3cc2-c2c(Cl)cccc2Cl)C1 (stereo unspecified) | > 256 µg/mL | > 256 µg/mL | 64 µg/mL (≈ 158 µM) | > 256 µg/mL |  |
| NCC1CCN(c2nc3nc(N)ncc3cc2-c2c(Cl)cccc2Cl)CC1 | 128 µg/mL (≈ 317 µM) | > 128 µg/mL | 32 µg/mL (≈ 79.3 µM) | > 128 µg/mL | 4 µg/mL |
| Nc1ncc2cc(-c3c(Cl)cccc3Cl)c(N3CCC(N)(CO)C3)nc2n1 (stereo unspecified) |  |  | 16 µg/mL (≈ 39.5 µM) |  | 8 µg/mL |
| Nc1ncc2cc(-c3c(Cl)cccc3Cl)c(N)nc2n1 |  | 256 µg/mL (≈ 836 µM) |  | > 256 µg/mL |  |
| Nc1ncc2cc(-c3c(Cl)cccc3Cl)c(N3CCC(CO)C3)nc2n1 (stereo unspecified) | > 64 µg/mL | > 64 µg/mL |  |  |  |
| NCC1CCN(c2nc3nc(N)ncc3cc2-c2c(Cl)cccc2Cl)C1 (stereo unspecified) |  |  | 16 µg/mL (≈ 41.1 µM) |  | 2 µg/mL |
| Nc1ncc2cc(-c3ccccc3-c3ccccc3)c(N)nc2n1 | > 256 µg/mL | > 256 µg/mL |  |  |  |
| Nc1ncc2cc(-c3c(Cl)cccc3-c3cccnc3)c(N)nc2n1 | 32 µg/mL (≈ 91.7 µM) | > 256 µg/mL | 8 µg/mL (≈ 22.9 µM) | > 256 µg/mL | 0.5 µg/mL |
| Nc1ncc2cc(-c3c(Cl)cccc3Cl)c(N3C[C@@H]4[C@@H](N)[C@@H]4C3)nc2n1 |  | 128 µg/mL (≈ 331 µM) |  |  |  |
